# Ab-14 heavy chain CDR variants: yeast mating affinities

Target peptide (SARS-CoV-2 spike, HR2 region): PDVDLGDISGINAS

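The variants were designed computationally from a first round of random CDR variants and then made and measured. Group labels follow the data file (Ctrl: baseline library sampled from a position-specific scoring matrix, with some repeated check sequences; En: ensemble of fine-tuned language models; GP: Gaussian process model; GPLM: also part of the Gaussian process libraries; HC: hill climbing; Gen: genetic algorithm; Gibbs: Gibbs sampling; a sequence that several methods proposed may carry one label only). AlphaSeq pools MATa yeast showing the antibodies with MATalpha yeast showing the peptide. Binding brings cells together so that they mate, and sequencing counts the barcode pairs among the diploids. A regression on co-assayed BCL2-family reference pairs converts the normalised counts of each replicate to an apparent Kd. Each pool was mated in six replicate cultures.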

Ab-14 is the parent antibody, in scFv form: VH, then a (GGGGS)3 linker, then VL. The light chain is unchanged in all variants.
VH: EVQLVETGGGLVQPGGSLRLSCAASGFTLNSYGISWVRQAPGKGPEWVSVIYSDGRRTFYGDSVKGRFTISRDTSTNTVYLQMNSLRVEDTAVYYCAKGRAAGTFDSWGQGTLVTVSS
VL: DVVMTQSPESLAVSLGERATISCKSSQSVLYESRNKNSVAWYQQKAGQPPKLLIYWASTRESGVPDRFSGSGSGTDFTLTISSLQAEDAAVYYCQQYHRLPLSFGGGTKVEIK

The parent's heavy chain CDRs are GFTLNSYGIS, VIYSDGRRTFYGDSVK, GRAAGTFDS; each variant's own CDRs replace them letter for letter.
Affinities are written as log10 Kd with Kd in nM; a lower number is a better binder.
Averages over replicates are reported, and they cover detected replicates only.
A pair that was not seen in that replicate is written "nd"; this usually means weak binding, but a binder can also be missed.
Entries are sorted by rising average, undetected variants last.
Values of this round are not directly comparable with the first-round values of the same sequences.
The authors' rule: three or more of the six replicates give a measured affinity, fewer mean a poor binder.
Background: pairings of all heavy chain designs with three empty control strains gave a value in 1% of cases (median 2.08, 5th percentile 0.84). Values in that range, when seen in few replicates, are hard to tell from nonspecific mating.

CDR-H1	CDR-H2	CDR-H3	group	replicates, log10 nM	mean log10 Kd (nM)
GFDLNEYGIS	VIYADGMRTVYADSVK	GQVAGTFDI	En_Gen	-0.38 / -0.68 / -0.74 / -0.77 / -0.69 / -0.62	-0.65
GFDLNEYGIS	VIYADGVRTYYADSVK	GNNAGTFDM	En_Gen	-0.67 / -0.37 / -0.83 / -1.09 / -0.82 / 0.03	-0.63
GFDLDEYGIS	VIYADGQRTAYVDSVK	GNVAGTFDL	En_Gen	-0.51 / -0.70 / -0.69 / -1.07 / -0.40 / -0.12	-0.58
GFDLNEYGIS	VIYADGMRTFYTDSVK	GEQAGTFDS	En_HC	-0.52 / -0.57 / -0.59 / -0.63 / -0.71 / -0.37	-0.57
GFDLNEYGIS	VIYADGRRTAYSDDVK	GNNAGTFDV	En_Gen	-0.63 / -0.48 / -0.53 / -0.67 / -0.72 / -0.37	-0.57
GFNLNEYGIS	VIYADGRRTAYTDDVK	GEVAGTFDL	En_HC	-0.49 / -0.53 / -0.43 / -0.59 / -0.72 / -0.52	-0.55
GFDLNEYGIS	VIYADGQRTFYTDSVK	GEAAGTFDQ	En_HC	-0.45 / -0.43 / -0.57 / -0.70 / -0.47 / -0.35	-0.49
GFDLDEYGIS	VIYADGRRTAYSDSVK	GEVAGTFDL	En_Gen	-0.22 / -0.65 / -0.29 / -0.69 / -0.59 / -0.52	-0.49
GFDLNEYGIS	VIYADGHRTFYSDSVK	GQIAGTFDA	En_HC	-0.38 / -0.74 / -0.54 / -0.46 / -0.42 / -0.36	-0.48
GFDLNEYGIS	VIYADGRRTAYADKVK	GEVAGTFDV	En_Gen	-0.15 / -0.58 / -0.54 / -0.74 / -0.52 / -0.31	-0.47
GFDLNEYGIS	VIYADGKRTAYTDSVK	GNVAGTFDV	En_Gen	-0.22 / -0.55 / -0.45 / -0.63 / -0.54 / -0.39	-0.46
GFNLMEYGIS	VIYADGTRTAYANTVK	GKYVDTFVD	En_Gibbs	-0.03 / -0.51 / -0.95 / -0.50 / -0.55 / -0.23	-0.46
GFDLDEYGIS	VIYADGRRTAYQDSVK	GQAAGTFDQ	En_HC	-0.44 / -0.02 / -0.40 / -0.60 / -1.04 / -0.13	-0.44
GFDLNEYGIS	VIYADGIRTFYADSVK	GNQAGTFDS	En_HC	-0.31 / -0.18 / -0.37 / -0.44 / -0.54 / -0.50	-0.39
GFDLDEYGIS	VIYADGKRTAYIDSVK	GNTAGTFDV	En_Gen	-0.17 / -0.23 / -0.49 / -0.48 / -0.32 / -0.15	-0.31
GFDLNEYGIS	VIYADGMRTSYIDSVK	GEQAGTFDL	En_HC	-0.09 / -0.35 / -0.25 / -0.50 / -0.29 / -0.32	-0.30
GFDLNEYGIS	VIYADGVRTFYADSVK	GNTAGTFDI	En_Gen	0.25 / 0.26 / -0.62 / -0.49 / -0.72 / -0.20	-0.25
GFTLNSYGIS	VIYSDGRRTFYGDSVK	GNVAGTFDS	GPLM_Gen	-0.12 / -0.11 / -0.26 / -0.39 / -0.07 / -0.44	-0.23
GFSLNEYGIS	VIYSDGRRTFYGDSVK	GRIAGTFDT	GPLM_Gen	-0.18 / -0.42 / -0.32 / -0.03 / -0.46 / 0.32	-0.18
GFDLNEYGIS	VIYADGRRTAYLDSVK	GEAAGTFDQ	En_HC	0.08 / -0.10 / -0.19 / -0.20 / 0.11 / 0.26	-0.01
GFTLNSYGIS	VIYSDGKRTFYIDSVK	GKVAGTFDS	GP_Gibbs	-0.30 / 0.37 / nd / nd / nd / nd	0.04
GFSLNSYGIS	VIYSDGRRTAYADSVK	GRQAGTFDS	GP_Gibbs	0.34 / 0.21 / 0.01 / 0.15 / -0.13 / 0.19	0.13
GFGLNEYGIS	VIYSDGRRTFYADSVK	GRNAGTFDS	GP_HC	0.16 / 0.19 / 0.12 / 0.12 / 0.31 / 0.41	0.22
GFDLNEYGIS	VIYADGMRTSYADSVK	GNQAGTFDL	En_Gen	0.63 / 0.99 / -0.08 / -0.20 / 0.32 / 0.15	0.30
GFTLNDYGIS	VIYSDGRRTFYGDSVK	GRIAGTFDT	GPLM_HC	1.83 / -0.10 / 0.03 / -0.41 / 0.49 / 0.06	0.32

Second part, the sequence after the result:

replicates, log10 nM	mean log10 Kd (nM)	CDR-H1	CDR-H2	CDR-H3	group
1.57 / 0.01 / 0.12 / -0.02 / 0.08 / 0.40	0.36	GFDLNEYGIS	VIYADGRRTYYIDSVK	GEIAGTFDV	En_HC
0.65 / 0.46 / 0.26 / 0.28 / 0.15 / 0.68	0.41	GFSLNEYGIS	VIYSDGRRTFYGDQVK	GQAAGTFDS	GP_Gen
0.19 / -0.35 / nd / 0.90 / 1.70 / 0.01	0.49	GFDLNEYGIS	VIYADGQRTFYADSVK	GEYAGTFDI	En_HC
0.57 / 1.15 / 0.55 / 0.67 / 0.51 / 0.73	0.70	GFSLNSYGIS	VIYSDGRRTFYGDSVK	GQTAGTFDS	GPLM_Gen
0.88 / 0.31 / 0.35 / 0.61 / 1.29 / 0.90	0.72	GFDLNMYGIS	VIYSDGRRTMYGDSVK	GRTAGTFDS	GP_Gen
1.08 / 0.98 / 0.89 / 0.47 / 0.42 / 1.24	0.85	GFDLNSYGIS	VIYSDGRRTFYGDDVK	GRTAGTFDS	GP_Gen
0.82 / 1.67 / 1.76 / 0.14 / 0.48 / 0.34	0.87	GFTLNEYGIS	VIYSDGRRTFYGDSVK	GQTAGTFDL	GPLM_Gen
nd / 0.62 / nd / 1.90 / 0.82 / nd	1.12	GFTLNSYGIS	VIYADGRRTFYGDSVK	GRAAGTFNS	Ctrl
1.59 / 1.19 / 1.25 / 1.38 / 1.25 / 1.04	1.28	GFWLNEYGIS	VIYSDGRRTFYGDSVK	GRTAGTFDA	GP_Gen
1.21 / 0.98 / 0.59 / 1.88 / 1.33 / 2.68	1.44	GFPLNDYGIS	VIYSDGRRTFYIDSVK	GRLAGTFDS	GP_HC
2.81 / 2.00 / nd / 2.20 / nd / nd	2.34	GFSLNEYGIS	VIYSDGRRTFYIDSVK	GPAAGTFDR	GP_HC
nd / nd / nd / nd / nd / 2.38	2.38	GDVLKEYGIS	VIYADGQRTFYVQDVK	GGKAGSFSV	En_Gibbs
nd / nd / nd / nd / nd / nd	nd	GFTVNSYGIS	VIYSDGRRTFYYDEVK	GRAYGTFDS	Ctrl
nd / nd / nd / nd / nd / nd	nd	GFTLNSYGIN	VIYSDGRRTFIIDSVK	GRAAGRFDS	Ctrl
nd / nd / nd / nd / nd / nd	nd	GFTLNSYGIS	VIYRDGRRTFYGDSVK	GRAAGTNDS	Ctrl
nd / nd / nd / nd / nd / nd	nd	GFTINSYGIS	VIYSDGRRTFYTDSVK	GTAHGTFDS	Ctrl
nd / nd / nd / nd / nd / nd	nd	GFTLNSYGIS	VIYSDGRRTFYGDSVK	GRGAGTFKS	Ctrl
nd / nd / nd / nd / nd / nd	nd	GDGLEDYGIS	VIYADGRRRAYVENVK	GVYAGYFDV	En_Gibbs
nd / nd / nd / nd / nd / nd	nd	GFDLEEYGIS	VIYADGKRTAYKNTVK	GSFMIDFVV	En_Gibbs
nd / nd / nd / nd / nd / nd	nd	GFNLNSYGIS	VIYSDGYRTFYGDSVK	GRAAVTFDS	Ctrl
nd / nd / nd / nd / nd / nd	nd	GFTLNSYGIS	VIYSDGERTFYCDSVK	GQAAGTFDS	GP_HC
nd / nd / nd / nd / nd / nd	nd	GFWLNSYGIS	VIYADGRRTFYGDSVK	GRAAGTFCS	Ctrl
nd / nd / nd / nd / nd / nd	nd	NFTLESYGIS	VIYADGRRTFYGDSVK	GRAAGTFTS	GP_HC
nd / nd / nd / nd / nd / nd	nd	KFSLNSYGIS	VIYSDGRRTFYADSVK	GRTAGTFDK	GP_Gibbs
nd / nd / nd / nd / nd / nd	nd	GFTRNSYGIS	VIYSDGRRTFYEDSVK	GQAAGTFDS	Ctrl
nd / nd / nd / nd / nd / nd	nd	GFHVNSFGIS	VIYSDGRRTFYGDSVK	GRAAGDFDS	Ctrl

Picked from the list: the 3 lowest averages where every replicate gave a value.

CDR-H1,CDR-H2,CDR-H3,group,"replicates, log10 nM",mean log10 Kd (nM)
GFDLNEYGIS,VIYADGMRTVYADSVK,GQVAGTFDI,En_Gen,-0.38 / -0.68 / -0.74 / -0.77 / -0.69 / -0.62,-0.65
GFDLNEYGIS,VIYADGVRTYYADSVK,GNNAGTFDM,En_Gen,-0.67 / -0.37 / -0.83 / -1.09 / -0.82 / 0.03,-0.63
GFDLDEYGIS,VIYADGQRTAYVDSVK,GNVAGTFDL,En_Gen,-0.51 / -0.70 / -0.69 / -1.07 / -0.40 / -0.12,-0.58

Values reported by Li et al. 2023, doi:10.1038/s41467-023-39022-2 (FLAb copy).